According to US9308270B2, “Pharmaceutical composition on the basis of nanomicelles containing epigallocatechin gallate and a method of administration thereof to treat atopic dermatitis, Crohn's disease, adenomyosis, and hyperplastic diseases of the prostate gland” (NORDIC LABS LIMITED, priority 2011, dated 2016):

Assay: Solubility of EGCG with Pluronic F127 (HPLC)
Conditions: for EGCG (mg/ml) solubility: 50 mg/ml EGCG

In the case of epigallocatechin-3-gallate [EGCG], the “EGCG (mg/ml) solubility” value (F127 2 % weight/volume) is reported as 0.87 mg/mL, the “EGCG (mg/ml) solubility” value (F127 4 % weight/volume) is reported as 7.24 mg/mL and the “EGCG (mg/ml) solubility” value (F127 6 % weight/volume) is reported as 16.37 mg/mL. The “EGCG (mg/ml) solubility” value (F127 8 % weight/volume) was 43.88 mg/mL, the “solubility in 8% Pluronic F127 relative to that in water” value (8% Pluronic F127 vs water) was 105 times and the water solubility (free EGCG (containing 90% of catechin), water) was 0.48 mg/mL. For the same substance, the “EGCG content of stable aqueous dispersions” value (with Pluronic F127) was “more than 50 mg/ml”.
